According to PMC10716778 (The Journal of Biological Chemistry, 2023):

Experiments:
KPC-2 = KPC-2 (Klebsiella pneumoniae, UniProt Q9F663); assay: Steady-state kinetics of β-lactam hydrolysis by KPC-2; settings: substrate hydrolysis by KPC-2; 30 °C, 50 mM sodium phosphate pH 7
[1] = tested on: CC1(C)S[C@@H]2[C@H](NC(=O)[C@H](N)c3ccccc3)C(=O)N2[C@H]1C(=O)O; assay: purified protein, by the assay type; settings: other: substrate hydrolysis by KPC-2, 30 °C, pH 7

CC(C)(O/N=C(\C(=O)N[C@@H]1C(=O)N2C(C(=O)[O-])=C(C[n+]3ccccc3)CS[C@H]12)c1csc(N)n1)C(=O)O [Ceftazidime]
kcat (KPC-2): >0.8 s⁻¹

KPC-2 (Klebsiella pneumoniae)
Km [1]: 210 ± 33 µM
kcat [1]: 160 ± 10 s⁻¹
kcat/Km [1]: 760000 ± 130000 M⁻¹ s⁻¹
